# The entries are a selection whose mix differs from that of the whole data set. Calls of active or inactive are those of the source. Calls follow the shape of the dose curve; as a rule, active = well fitted inhibition curve with a large enough effect; inconclusive = small, poorly fitted or top-dose-only effect; inactive = no such curve, though single readings can be large or run the other way.
# Amino acid sequences for entries named in this document (tags omitted).
# UniProt Q8WZA2, whole entry: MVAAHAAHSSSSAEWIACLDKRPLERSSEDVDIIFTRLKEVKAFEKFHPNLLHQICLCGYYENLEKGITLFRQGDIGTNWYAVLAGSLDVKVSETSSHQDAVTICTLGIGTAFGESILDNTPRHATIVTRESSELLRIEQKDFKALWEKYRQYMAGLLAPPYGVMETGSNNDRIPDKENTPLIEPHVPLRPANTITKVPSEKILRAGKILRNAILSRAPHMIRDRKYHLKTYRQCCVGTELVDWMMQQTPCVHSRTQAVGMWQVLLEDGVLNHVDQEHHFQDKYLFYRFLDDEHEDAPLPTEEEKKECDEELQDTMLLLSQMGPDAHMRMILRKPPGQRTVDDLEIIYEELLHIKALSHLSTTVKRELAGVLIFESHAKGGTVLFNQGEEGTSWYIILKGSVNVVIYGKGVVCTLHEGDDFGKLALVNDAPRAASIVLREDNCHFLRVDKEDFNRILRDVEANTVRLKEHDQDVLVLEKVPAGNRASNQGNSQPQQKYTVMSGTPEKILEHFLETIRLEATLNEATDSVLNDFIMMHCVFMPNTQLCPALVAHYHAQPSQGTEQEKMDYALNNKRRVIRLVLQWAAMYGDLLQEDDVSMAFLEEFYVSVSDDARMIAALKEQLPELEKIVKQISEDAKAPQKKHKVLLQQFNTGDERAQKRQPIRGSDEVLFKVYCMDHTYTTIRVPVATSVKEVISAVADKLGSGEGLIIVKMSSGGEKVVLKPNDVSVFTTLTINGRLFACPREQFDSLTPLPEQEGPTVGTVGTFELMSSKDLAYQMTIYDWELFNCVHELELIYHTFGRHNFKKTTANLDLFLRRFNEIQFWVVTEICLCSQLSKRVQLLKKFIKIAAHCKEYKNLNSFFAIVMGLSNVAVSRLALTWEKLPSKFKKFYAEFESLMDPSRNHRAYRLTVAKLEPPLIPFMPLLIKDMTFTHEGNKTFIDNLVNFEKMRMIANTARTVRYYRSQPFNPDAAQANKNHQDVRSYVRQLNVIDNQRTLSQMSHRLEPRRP
# Target: Rap guanine nucleotide exchange factor 4 (Homo sapiens) (UniProt Q8WZA2)
# Assay: qHTS for Antagonist of cAMP-regulated guanine nucleotide exchange factor 2 (EPAC2): primary screen; also: nearly all actives have a fitted effect of over 45% in size
# Conditions: EPAC2 GEF exchange of Rap1B-BODIPY-GDP, fluorescence; series mostly up to 114 µM; activity, negative = inhibition: at the top concentration
# From the text: In multi-cellular eukaryotic organisms, the effects of cAMP are transduced by two ubiquitously-expressed intracellular cAMP receptors, the classic protein kinase A/cAMP-dependent protein kinase (PKA/cAPK) and the more recently discovered exchange protein directly activated by cAMP/cAMP-regulated guanine nucleotide exchange factor (EPAC/cAMP-GEF). Both PKA and EPAC are ubiquitously expressed in all tissues, and an increase in intracellular cAMP levels will lead to the activation of both PKA and EPAC. Therefore, careful dissections of the individual role and relative contribution of EPAC and PKA within the overall cAMP signaling in various model systems are critical for further elucidating the mechanism of cAMP signaling. To date no EPAC-specific antagonists and agonist, as well as isoform-specific agonists have been reported, and developing EPAC-specific pharmacological probes to determine the physiological functions that EPAC play in the overall cAMP-mediated signaling remains a major challenge within the research field. Furthermore, identified regulators of EPAC may lead to new mechanism-based therapeutic strategies specifically targeting the EPAC / cAMP-signaling components as EPAC has been implicated to play important roles in major human pathological conditions such as diabetes, heart disease, and cancer.
# This qHTS will be used to screen the Molecular Libraries Small Molecule Repository (MLSMR) as a concentration-titration series using the NCGC unique quantitative screening (qHTS) platform to find inhibitors for EPAC2. In addition, this assay will also be used as a counterscreen for the EPAC1 qHTS. This fluorescent based assay is developed and validated for EPAC2 that measures exchange using EPAC effector Rap1 complex with BODIPY-GDP, a GDP analog with a tethered fluorophores. Inhibitors are identified by monitoring the change in fluorescence signal as the exchanged free BODIPY-GDP has a reduced fluorescence compared to Rap1-bound BODIPY-GDP. Decrease in signal (inhibition) is the desired outcome for the EPAC2 antagonist while no activity in this assay is desired for the EPAC1 antagonist counterscreen.
# NIH Chemical Genomics Center [NCGC]
# NIH Molecular Libraries Probe Centers Network [MLPCN]
# Assay Submitter (PI): Xiaodong Cheng, The University of Texas, Medical Branch
# Briefly, three uL of reagents (100 nM EPAC2, 250 nM RAP1B-BODIPY-GDP, 50 uM GDP) were dispensed into a 1536-well Greiner black solid-bottom medium binding assay plate. Controls and test compounds (23 nL) were transferred to the plate via a Kalypsys pin tool equipped with a 1536-pin array. The plates were centrifuged at 1,000 rpm for 15 seconds followed by 5 minute incubation at room temperature. The assay plates were read at 5 minute intervals for 30 minutes in the ViewLux plate reader using 480nm excitation and 540nm emission filters. The results were normalized to the agonist positive control ATA and DMSO.
# % is scaled to controls: 0 for no effect and ±100 for the full control effect; potency is read from the fitted curve at half-maximal effect.
SMILES,"activity, negative = inhibition",Potency
O=[N+]([O-])c1cc([N+](=O)[O-])c(-n2nnc3ccccc32)c([N+](=O)[O-])c1,inactive: -22.6%,–
CN(Cc1cccnc1)C(=O)COc1ccc(Cl)c(Cl)c1.O=[N+]([O-])c1cc([N+](=O)[O-])c(O)c([N+](=O)[O-])c1,inactive: -26.3%,–
Cc1nc2ccc3ccccc3c2s1.O=[N+]([O-])c1cc([N+](=O)[O-])c(O)c([N+](=O)[O-])c1,inactive: -3.3%,–
O=[N+]([O-])c1cc([N+](=O)[O-])c(Nc2nnnn2CCO)c([N+](=O)[O-])c1,inactive: -24%,–
CC1=C2N=C(C=C3N=C(C(C)=C4[N-][C@@](C)([C@@H]5N=C1[C@](C)(CCC(=O)NC[C@@H](C)OP(=O)([O-])O[C@H]1[C@@H](O)[C@@H](n6cnc7cc(C)c(C)cc76)O[C@@H]1CO)[C@H]5CC(N)=O)[C@@](C)(CC(N)=O)[C@@H]4CCC(N)=O)[C@@](C)(CC(N)=O)[C@@H]3CCC(N)=O)C(C)(C)[C@@H]2CCC(N)=O.[C-]#N.[Co+3],inactive: -12.2%,–
CN1CCCCC1COC(=O)C1(O)c2ccccc2CCc2ccccc21 (stereo unspecified),inactive: -15.5%,–
COc1ccccc1OP(C)(=O)Nc1c(C)cccc1C (stereo unspecified),inactive: 16.4%,–
CP(=O)(Nc1ccc(SC(F)(F)F)cc1)Oc1ccccc1 (stereo unspecified),inactive: -23.4%,–
CCCOc1ccc(NP(C)(=O)Oc2ccc(Cl)cc2)cc1 (stereo unspecified),inactive: -13.9%,–
COc1ccc(-c2ccccn2)cc1.O=[N+]([O-])c1cc([N+](=O)[O-])c(O)c([N+](=O)[O-])c1,inactive: -14.2%,–
CC1=NCCc2c1[nH]c1ccccc21.O=[N+]([O-])c1cc([N+](=O)[O-])c(O)c([N+](=O)[O-])c1,inactive: 1.58%,–
COc1ccccc1OP(C)(=O)Nc1cccc(Br)c1 (stereo unspecified),inactive: -19.2%,–
Cc1cc(C)cc(OP(C)(=O)Nc2ccc(C)cc2C)c1 (stereo unspecified),inactive: -4.55%,–
CCOC(=O)c1ccc(NP(C)(=O)Oc2cc(C)cc(C)c2)cc1 (stereo unspecified),inactive: -13.4%,–
CP(=O)(Nc1cccc(Br)c1)Oc1ccccc1 (stereo unspecified),inactive: 3.63%,–
Cc1cc(C)cc(OP(C)(=O)Nc2ccccn2)c1 (stereo unspecified),inactive: 4.89%,–
Cc1ccc(C)c(NP(C)(=O)Oc2ccccc2)c1 (stereo unspecified),inactive: -0.958%,–
CCN(CC)CCCOC(=O)C(O)(c1ccccc1)c1ccccc1,inactive: 1.47%,–
COc1ccccc1-c1ccccn1.O=[N+]([O-])c1cc([N+](=O)[O-])c(O)c([N+](=O)[O-])c1,inactive: -21.9%,–
O=[N+]([O-])c1cc([N+](=O)[O-])c(Nc2cccnc2)c([N+](=O)[O-])c1,inactive: 10.8%,–
CC(C)(C)c1ccc(OP(C)(=O)Nc2ccc(SC(F)(F)F)cc2)cc1 (stereo unspecified),inactive: -9.13%,–

SMILES,"activity, negative = inhibition",Potency
Cc1cccc(C)c1OP(C)(N)=O (stereo unspecified),inactive: -0.169%,–
O=[N+]([O-])c1ccc2c(c1)C=Nc1ccccc1O2,inactive: -14.4%,–
CCOC(=O)c1ccc(NP(C)(=O)Oc2ccccc2)cc1 (stereo unspecified),inactive: 3.17%,–
COc1ccccc1OP(C)(=O)Nc1ccc(C)cc1 (stereo unspecified),inactive: 4.64%,–
Cc1ccc(NP(C)(=O)Oc2ccccc2)c(C)c1 (stereo unspecified),inactive: -26.3%,–
COc1ccccc1OP(C)(=O)Nc1cc(Cl)ccc1C (stereo unspecified),inactive: -5.52%,–
COc1ccc(OP(C)(=O)Nc2cccc(F)c2)cc1 (stereo unspecified),inactive: 15.4%,–
Cc1cc(C)cc(OP(C)(N)=O)c1 (stereo unspecified),inactive: 23.7%,–
COc1ccccc1OP(C)(=O)Nc1ccccc1 (stereo unspecified),inactive: 1.41%,–
CP(=O)(Nc1ccccc1Br)Oc1ccccc1 (stereo unspecified),inactive: 6.38%,–
Cc1cccc(C)c1OP(C)(=O)Nc1ccc(SC(F)(F)F)cc1 (stereo unspecified),inactive: 8.06%,–
CP(=O)(Oc1ccccc1)OC(c1ccccc1)C(F)(F)F (stereo unspecified),inactive: -19.3%,–
CCc1ccc(OP(C)(=O)N2CCN(c3ccc([N+](=O)[O-])cc3)CC2)cc1 (stereo unspecified),inactive: -25%,–
CP(=O)(NC(=O)Nc1ccccc1)Oc1ccccc1 (stereo unspecified),inactive: -11.5%,–
Cc1cc(C)cc(OP(C)(=O)Nc2ccc(SC(F)(F)F)cc2)c1 (stereo unspecified),inactive: -29.6%,–
CCOP(C)(=S)SCC(=O)NC(C)C(=O)O (stereo unspecified),inactive: 20.8%,–
O=[N+]([O-])c1cc([N+](=O)[O-])c(O)c([N+](=O)[O-])c1.c1ccc(Oc2ccncc2)cc1,inactive: -11.1%,–
CCOC(=O)c1ccc(NP(C)(=O)Oc2ccc(OC)cc2)cc1 (stereo unspecified),inactive: -16.3%,–
CP(=O)(Nc1ccccn1)Oc1ccc(Cl)cc1 (stereo unspecified),inactive: 10.3%,–
CCN(CC)CC(O)COC(=O)C(O)(c1ccccc1)C1CCCCC1 (stereo unspecified),inactive: -2.7%,–
COc1ccc(OP(C)(=O)Nc2ccc(Br)cc2)cc1 (stereo unspecified),inactive: 7.71%,–

SMILES,"activity, negative = inhibition",Potency
CP(=O)(Oc1ccccc1)N1CCOC1=O (stereo unspecified),inactive: -0.943%,–
CCc1ccc(OP(C)(=O)Nc2cccnc2)cc1 (stereo unspecified),inactive: 12.9%,–
COc1ccccc1OP(C)(=O)Nc1c(C)n(C)n(-c2ccccc2)c1=O (stereo unspecified),inactive: -1.58%,–
O=C(OCCCN1CCCC1)C(O)(c1ccccc1)C1CCCCC1 (stereo unspecified),inactive: 1.09%,–
CP(=O)(Nc1ccc(Cl)cc1)Oc1ccc(F)cc1 (stereo unspecified),inactive: 6.29%,–
CC(C)(C)c1ccc(OP(C)(=O)O)cc1,inactive: 9.85%,–
CN(C)C(=O)c1c([N+](=O)[O-])cc([N+](=O)[O-])cc1[N+](=O)[O-],inactive: 3.37%,–
Nc1ccc2c(ccc3cccnc32)n1.O=[N+]([O-])c1cc([N+](=O)[O-])c(O)c([N+](=O)[O-])c1,inactive: -16.6%,–
CP(=O)(OC12CC3CC(CC(C3)C1)C2)OC12CC3CC(CC(C3)C1)C2,inactive: -0.84%,–
CCOC(=O)c1ccc(NP(C)(=O)Oc2ccc(Cl)cc2)cc1 (stereo unspecified),inactive: -1.82%,–
COc1ccc(OP(C)(=O)Nc2ccccc2Br)cc1 (stereo unspecified),inactive: 18.3%,–
COc1ccccc1OP(C)(=O)Nc1ccc(C)c(C)c1 (stereo unspecified),inactive: -22.1% [at 57.1 µM],–
CP(=O)(OCCOc1ccccc1)OCCOc1ccccc1,inactive: -1.4%,–
COc1ccccc1OP(C)(=O)Nc1ccc(Br)cc1 (stereo unspecified),inactive: -9.33%,–
CN(C)CCOC(=O)C(O)(c1ccccc1)C1CCCC1 (stereo unspecified),inactive: 4.84%,–
COc1ccc(OP(C)(=O)Nc2ccccn2)cc1 (stereo unspecified),inactive: 18.5%,–
O=[N+]([O-])c1cc([N+](=O)[O-])c(Nc2ccccn2)c([N+](=O)[O-])c1,inactive: -11%,–
Cc1c(NP(C)(=O)Oc2ccc(C(C)C)cc2)c(=O)n(-c2ccccc2)n1C (stereo unspecified),inactive: 15.3%,–
CCc1ccc(OP(C)(=O)O)cc1,inactive: 0.691%,–
CP(=O)(Nc1ccccn1)Oc1ccccc1 (stereo unspecified),inactive: -0.261%,–
COc1ccccc1OP(C)(=O)Nc1ccc(C)cc1C (stereo unspecified),inactive: 1.8%,–

SMILES,"activity, negative = inhibition",Potency
CP(=O)(Nc1ccccc1F)Oc1ccccc1 (stereo unspecified),inactive: 21.8%,–
O=C(OCCN1CCN(CCOCc2ccccc2)CC1)C(O)(c1ccccc1)c1ccccc1,inactive: -3.12%,–
COc1ccc(OP(C)(=O)Nc2ccc(SC(F)(F)F)cc2)cc1 (stereo unspecified),inactive: -24.1%,–
CCOC(=O)c1ccc(NP(C)(=O)Oc2ccc(F)cc2)cc1 (stereo unspecified),inactive: 10.1%,–
CCN(CC)CCCOC(=O)C(O)(c1ccccc1)C1CCCCC1 (stereo unspecified),inactive: 10.1%,–
Cc1c([N+](=O)[O-])cc([N+](=O)[O-])c(Br)c1[N+](=O)[O-],inactive: -8.73%,–
CP(=O)(Nc1ccccc1)Oc1ccc(F)cc1 (stereo unspecified),inactive: 18.9%,–
COc1ccc(OP(C)(=O)Nc2cccc(Br)c2)cc1 (stereo unspecified),inactive: -2.75%,–
COc1ccc(NP(C)(=O)Oc2ccccc2OC)cc1 (stereo unspecified),inactive: -3.79%,–
CN(C)CCOC(=O)C(O)(c1ccccc1)C1CCCCC1 (stereo unspecified),inactive: -1.87%,–
Cc1cc(-c2cccc3ccccc23)c(C)cn1.O=[N+]([O-])c1cc([N+](=O)[O-])c(O)c([N+](=O)[O-])c1,–,active: 20 µM
O=[N+]([O-])c1ccc(OP2(=O)COCCO2)cc1 (stereo unspecified),inactive: 17.6%,–
Cc1c(C(c2ccc3c(c2)OCO3)c2c(C)n(C)n(-c3ccccc3)c2=O)c(=O)n(-c2ccccc2)n1C.O=[N+]([O-])c1cc([N+](=O)[O-])c(O)c([N+](=O)[O-])c1,inactive: -2.31%,–
CP(=O)(Nc1ccc(SC(F)(F)F)cc1)Oc1ccc(F)cc1 (stereo unspecified),inactive: -16.9%,–
CCOP(C)(=S)SCC(=O)NC(C)(CC)C(=O)O (stereo unspecified),inactive: 15.5%,–
CP(=O)(Nc1ccc2c(c1)OCCO2)Oc1ccccc1 (stereo unspecified),inactive: 1.2%,–
O=[N+]([O-])c1cc([N+](=O)[O-])c(C(F)(F)F)c([N+](=O)[O-])c1O,–,active: 8.44 µM
Cc1ccccc1NP(C)(=O)Nc1ccccc1C,inactive: 8.32%,–
